Values of other authors, collected in patent US20230154571A1, “METHOD AND DEVICE FOR SELECTING A SUBASSEMBLY OF MOLECULES FOR USE IN PREDICTING AT LEAST ONE PROPERTY OF A MOLECULAR STRUCTURE” (published 2023).

system: different bacterial cultures; settings: Annex 1, AMES mutagenicity test, load molecules; data validated at the level of the European authorities

Q: For `Cc1ccccc1[N+](=O)[O-]`, which Experimental data is on record?
A: −

Q: For `O=[N+]([O-])c1ccc(Cl)c(Cl)c1`, which Experimental data is on record?
A: +

Q: With `O=[N+]([O-])c1ccc(Cl)c([N+](=O)[O-])c1` as the compound, how does the Experimental data read?
A: +

Q: For `O=[N+]([O-])c1cccc2ccccc12`, which Experimental data is on record?
A: +

Q: For 1-chloro-4-dinitrobenzene, which Experimental data is on record?
A: +

same assay, conditions: Annex 2, AMES mutagenicity test, different categories of molecules

Q: Which Exp. data does the source give for `C=CCOC(=O)c1ccccc1C(=O)OCC=C` here?
A: −

Q: Which Exp. data does the source give for `CCCCOC(=O)CCCCCCCCC(=O)OCCCC` here?
A: −

Q: With `CCOCC` as the compound, how does the Exp. data read?
A: −

Q: For `CNN`, which Exp. data is on record?
A: +

Q: For `Cc1ccccc1[N+](=O)[O-]`, which Exp. data is on record?
A: −

Q: For `NN`, which Exp. data is on record?
A: +

Q: With `O=[N+]([O-])c1ccc(Cl)c(Cl)c1` as the compound, how does the Exp. data read?
A: +

Q: With `O=[N+]([O-])c1ccc(Cl)c([N+](=O)[O-])c1` as the compound, how does the Exp. data read?
A: +

Q: Which Exp. data does the source give for `O=[N+]([O-])c1cccc2ccccc12` here?
A: +

Q: With `c1ccc(N(c2ccccc2)c2ccccc2)cc1` as the compound, how does the Exp. data read?
A: −

Q: Which Exp. data does the source give for `c1ccc(Nc2ccccc2)cc1` here?
A: −

Q: With 1-chloro-4-dinitrobenzene as the compound, how does the Exp. data read?
A: +

Q: Which Exp. data does the source give for 2-nitro diphenylamine here?
A: −

Q: With Acide nitric as the compound, how does the Exp. data read?
A: +

Q: With Acide perchlorique as the compound, how does the Exp. data read?
A: −

Q: For Paris Green, which Exp. data is on record?
A: −

Q: Which Exp. data does the source give for barium chlorate here?
A: −

Q: Which Exp. data does the source give for calcium carbonate here?
A: −

Q: With nitrogen tetroxide as the compound, how does the Exp. data read?
A: +

Q: Which Exp. data does the source give for oxide nitrous here?
A: +

Q: For sodium nitrate, which Exp. data is on record?
A: −

Q: For strontium carbonate, which Exp. data is on record?
A: −

Q: Which Exp. data does the source give for strontium chloride here?
A: −

Q: With strontium nitrate as the compound, how does the Exp. data read?
A: −

Q: For strontium sulfate, which Exp. data is on record?
A: −
